This passage reports activity change, negative = cytotoxicity results from PubChem BioAssay AID504648 (National Center for Advancing Translational Sciences (NCATS), 2011).

This is a selection; strong and weak results do not stand in their true shares. Inconclusive results are not listed. Calls of active or inactive are those of the source. The call rests on the fitted dose curve; in most records, active means well fitted inhibition curve with a large enough effect; inconclusive means small, poorly fitted or top-dose-only effect, or effect the other way, or another doubt; inactive means no such curve, though single readings can be large or run the other way.
On the % scale 0 is the no-effect control and ±100 the full control effect.

A short description of this test: Nrf2 qHTS screen for inhibitors: counterscreen for cytotoxicity. As to conditions: A549 ARE-Fluc cells, CellTiter-Fluor viability, 18-24 h; at 46 µM (top of the series). From the text:
NIH Molecular Libraries Probe Production Network [MLPCN]
NIH Chemical Genomics Center [NCGC]
Assay Provider: Shyam Biswal, Johns Hopkins University
Nrf2 is a transcription factor that maintains cellular redox homoestasis and protects cells from xenobiotics. Nrf2 binds to the antioxidant response element (ARE) to induce gene expression of a broad spectrum of genes that encode for antioxidants. […] Finding a small molecule that act as an inhibitor of Nrf2 function would represent a novel therapeutic target that could lead to improvement in survival of patients undergoing chemo- and/or radio- therapy.
So here we implemented a counterscreen to weed out the cytotoxic compounds.
1. […]
A concentration-response assay was performed with A549 ARE_Fluc cells which are suspended in 5% FBS OPTI-MEM. […] The plate is then incubated at 37deg C at 5% CO2 for 30 minutes before they are read on the ViewLux (Perkin Elmer) for a fluorescent read Ex=405(10)/Em=525(10) for a 3 second exposure, 2x binning, and high gain. […] Afterwards another ViewLux read is performed using the clear filter to get a luminescent read with the settings of 40 second exposure, 2x binning, and high gain. Cytotoxicity is assessed through the first fluorescent read and then biochemical activity against Nrf2 is measured in the luminescent read.
In general terms: qHTS replaces the single test concentration by a dilution series.
On to `O=C(Nc1cc([As](=O)(O)O)ccc1O)c1ccccc1`, for which the activity change, negative = cytotoxicity was inactive: -1.74%.

Turning to `CC(C)/C=N\N=C(\N)N[N+](=O)[O-]`, the activity change, negative = cytotoxicity was inactive: 7.03%.
